The values below are quoted from earlier work in US12290595B2, “Implantable depots for the controlled release of therapeutic agents” (Foundry Therapeutics, Inc., priority 2017, dated 2025).

The conditions of this data set: 28 wt % maraviroc, PVP electrospun nanofiber, 2.5 wt % Tween 20.

As to maraviroc, the “time to complete release” value was “six”.
